Assay results published in patent US7959916B2, “Negative immunomodulation of immune responses by ERp5” (Fred Hutchinson Cancer Research Center, priority 2007, dated 2011).

Test system: surface expression of MICA
Settings: tumor lines exposed to DTNB or PAO at titered non-toxic concentrations

O=[As]c1ccccc1 (stereo not shown)
surface expression of MICA: without affecting surface expression of MICA
